ChEMBL document CHEMBL1128221 (J Med Chem, 1995)

Legend:
LoVo [1] = assay: Cytotoxicity against colorectal tumor cell line LoVo 1 hour after incubation.; type: functional, cell-based, Homo sapiens
Procedure, shortened: (§1)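 LoVo colorectal cells (2.5 × 10^3/well) were exposed to a range of prodrug or parent drug concentrations for 1 h, then washed. The cells were grown a further 3 days at 37 °C, fixed, and stained with sulforhodamine B to measure cellular protein. Treated wells were compared with untreated controls to give IC50. The ratio is prodrug IC50 over drug IC50.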

LoVo [2] = assay: Ratio of IC50 (prodrug)/IC50 (drug); type: functional, Homo sapiens; procedure, shortened: as §1

## Oc1ccc(N(CCCl)CCCl)c(Cl)c1
LoVo [1]
  IC50: 2120 nM
LoVo [2]
  Ratio: 4.4

Only a part of the results on these compounds is given; other tests are left out.
